The values that follow are results of earlier work, collected in publication PMC3367028.

Amino acid sequences for entries named in this document (tags omitted). Residues count along the entry.
UniProt P04233, 73-296: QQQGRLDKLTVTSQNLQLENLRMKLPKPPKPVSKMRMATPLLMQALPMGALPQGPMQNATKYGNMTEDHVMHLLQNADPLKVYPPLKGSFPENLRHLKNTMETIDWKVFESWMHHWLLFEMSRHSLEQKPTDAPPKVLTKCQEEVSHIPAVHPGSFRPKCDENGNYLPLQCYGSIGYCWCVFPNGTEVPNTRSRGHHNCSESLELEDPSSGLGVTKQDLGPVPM
UniProt P14174, 2-115: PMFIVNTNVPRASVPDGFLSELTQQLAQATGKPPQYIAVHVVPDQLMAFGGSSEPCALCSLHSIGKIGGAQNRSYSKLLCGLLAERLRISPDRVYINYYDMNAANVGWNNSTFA

By Kd is commonly meant a measure of binding affinity in units of concentration.

This series addresses CD74 (Homo sapiens) (UniProt P04233). In words: SPR. (SPR reads the build-up and loss of mass on a sensor chip optically.)

As for MIF (from UniProt P14174), the Kd is 1.54 nM.
